Read-outs that look alike come from different tables or passages of the source.
Columns and labels:
human Mdm2 1–125 = human Mdm2 1–125 (Homo sapiens, UniProt Q00987); test: Mdm2 binding by competitive fluorescence anisotropy assay (FP binding); details: read-out: FP binding assay KD; Tween-20 <CMC
[1] = system: Jump-In T-REx CHO-K1 BLA cells; details: for EC50: read-out: TETCHO: Counterscreen EC50
HCT116 cells = test: Lactate dehydrogenase (LDH) release assay; type: cell-based; details: for EC50: read-out: LDH: Cytotoxicity assay EC50
[2] = system: p53 responsive β-lactamase reporter in HCT116 cells; details: for EC50: read-out: p53 reporter assay EC50

By UniProt entry, the sequences of proteins in these tests, tags left out. Chains listed by the source or under a name are the forms on record and can include a tag or linker. Residues count along the entry.
UniProt Q00987, 1-125 with tags or gaps: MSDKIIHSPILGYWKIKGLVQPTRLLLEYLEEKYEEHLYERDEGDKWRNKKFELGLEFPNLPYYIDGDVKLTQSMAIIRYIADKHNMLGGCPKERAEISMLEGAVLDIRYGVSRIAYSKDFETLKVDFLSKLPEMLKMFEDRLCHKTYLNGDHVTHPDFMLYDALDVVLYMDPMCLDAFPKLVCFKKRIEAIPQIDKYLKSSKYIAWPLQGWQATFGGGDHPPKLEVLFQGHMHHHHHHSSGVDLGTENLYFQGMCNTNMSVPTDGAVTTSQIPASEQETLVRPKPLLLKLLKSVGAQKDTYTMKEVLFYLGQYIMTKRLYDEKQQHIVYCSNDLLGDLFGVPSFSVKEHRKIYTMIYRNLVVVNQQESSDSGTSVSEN

In the case of `C[C@H]1CC[C@H](Cn2c(N3CCOC[C@H]3c3ccccc3)nc3cc(-c4noc(=O)[nH]4)nc(-c4cncc(Cl)c4)c32)CC1`, the Kd (human Mdm2 1–125) is reported as 4.3 nM, the “TETCHO: Counterscreen % Effect” value ([1]; 0% FBS 4Hr) is reported as 72.1% and the “TETCHO: Counterscreen % Effect” value ([1]; 10% FBS 4Hr) is reported as 67.6%. The “TETCHO: Counterscreen % Effect” value ([1]; 10% FBS 16Hr) was 51%, the EC50 ([1]; 0% FBS 4Hr) was 12600 nM and the EC50 ([1]; 10% FBS 4Hr) was 834 nM. For the same compound, the EC50 ([1]; 10% FBS 16Hr) was 18300 nM, the “LDH: Cytotoxicity assay % Effect” value (HCT116 cells; 0% FBS 4Hr) was -4.4% and the “LDH: Cytotoxicity assay % Effect” value (HCT116 cells; 10% FBS 4Hr) was -14.3%. The “LDH: Cytotoxicity assay % Effect” value (HCT116 cells; 10% FBS 16Hr) was -16.3%, the EC50 (HCT116 cells; 0% FBS 4Hr) was over 50700 nM and the EC50 (HCT116 cells; 10% FBS 4Hr) was over 50700 nM. For the same compound, the EC50 (HCT116 cells; 10% FBS 16Hr) was over 50700 nM, the “p53 reporter assay % Effect” value ([2]; 0% FBS 4Hr) was 75.7% and the “p53 reporter assay % Effect” value ([2]; 10% FBS 4Hr) was 96.3%. The “p53 reporter assay % Effect” value ([2]; 10% FBS 16Hr) was 82.6%, the EC50 ([2]; 0% FBS 4Hr) was 4.54 nM and the EC50 ([2]; 10% FBS 4Hr) was 22.7 nM. It also gave an EC50 ([2]; 10% FBS 16Hr) of 151 nM.
